# Measured values from patent US20250325529A1, “INHIBITORS OF FATTY ACID BINDING PROTEINS (FABPs), METHODS OF USE AND METHODS OF MAKING” (Celloram, inc., priority 2024, published 2025).
# By UniProt entry, the sequences of proteins in these tests, tags left out.
# UniProt P37231, whole entry, species assumed: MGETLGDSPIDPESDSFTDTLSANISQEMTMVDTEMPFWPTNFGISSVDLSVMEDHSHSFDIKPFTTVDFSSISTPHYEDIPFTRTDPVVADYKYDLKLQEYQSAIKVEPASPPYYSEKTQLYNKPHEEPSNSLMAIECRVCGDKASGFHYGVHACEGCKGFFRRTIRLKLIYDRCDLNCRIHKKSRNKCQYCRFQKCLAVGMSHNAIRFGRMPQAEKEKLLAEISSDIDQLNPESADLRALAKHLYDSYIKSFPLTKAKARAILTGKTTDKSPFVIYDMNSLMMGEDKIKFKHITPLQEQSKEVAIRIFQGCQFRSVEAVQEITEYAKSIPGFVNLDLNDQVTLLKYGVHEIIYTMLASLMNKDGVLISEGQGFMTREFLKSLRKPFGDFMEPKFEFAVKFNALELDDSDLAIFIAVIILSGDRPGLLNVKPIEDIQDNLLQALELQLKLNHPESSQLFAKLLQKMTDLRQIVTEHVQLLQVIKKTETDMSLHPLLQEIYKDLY
# Biological target: PPARγ (Homo sapiens (Human), UniProt P37231)
# Experiment: Transcriptional activation assay in COS7 cells, PPARγ
# Assay type: cell-based
compound,measurement,value
"CN(CCOc1ccc(CC2SC(=O)NC2=O)cc1)c1ccccn1 (stereo not shown) [rosiglitazone, reference compound]",Activation of transcription by PPARγ,induced activation of their respective receptors
